Amino acid sequences for entries named in this document (tags omitted). Residues count along the entry.
UniProt P51449, 269-508: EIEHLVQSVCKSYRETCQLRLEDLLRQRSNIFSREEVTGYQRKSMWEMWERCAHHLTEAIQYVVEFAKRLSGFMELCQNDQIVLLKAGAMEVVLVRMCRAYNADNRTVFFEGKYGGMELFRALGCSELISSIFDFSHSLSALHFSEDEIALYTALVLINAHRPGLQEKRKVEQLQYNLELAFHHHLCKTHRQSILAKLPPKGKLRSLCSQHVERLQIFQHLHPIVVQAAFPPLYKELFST

In patent US9487490B2, “3-cyclohexenyl and cyclohexyl substituted indole and indazole compounds as RORgammaT inhibitors and uses thereof” (Merck Sharp & Dohme Corp., priority 2012, dated 2016):

Molecular target: human RORgammaT-Ligand Binding Domain (LBD) (Homo sapiens (Human), UniProt P51449)
Assay: RORγ-Ligand Binding Domain TR-FRET assay (co-activator peptide SRC1_2 recruitment)
Type: biochemical
Conditions: HIS-tagged RORγ-LBD 3 nM, biotinylated SRC1 LXXLL peptide 100 nM, incubated overnight at 4° C., 665 nm/615 nm signal quotient
Text: Activation of RORgammaT activity can be measured using, e.g., biochemical TR-FRET assay. In such an assay, interaction of cofactor-derived peptides with human RORgammaT-Ligand Binding Domain (LBD) can be measured.
To identify novel antagonists of RORgammaT, an assay was developed which employs the interaction of RORgammaT with its co-activator peptide SRC1_2. […] The RORγ-Ligand Binding Domain TR-FRET Assay was run according to the following protocol.
HIS-tagged RORγ-LBD protein was expressed in SF9 cells using a baculovirus expression system. The RORγ-LBD protein was purified by glutathione sepharose chromatography. Separately, SF9 cells not expressing any recombinant protein were lysed and the lysate was added to the purified RORγ-LBD at 0.25 μl lysate (from 10,000 SF9 cells)/nM purified protein. The mixture was then diluted in assay buffer (50 mM Tris pH 7.0, 50 mM KCl, 1 mM EDTA, 0.1 mM DTT) to obtain RORγ-LBD final concentration of 3 nM in 384-well assay plate.
Compounds to be tested were injected to the assay plate using Acoustic Droplet Ejection technology by Echo 550 liquid handler (Labcyte, Calif.).

| IC50 [nM] | SMILES |
| --- | --- |
| 5 | O=C(O)C1CC=C(c2nn(C(=O)c3c(Cl)cccc3C3CC3)c3cccc(F)c23)CC1 (single isomer, unassigned) [Example 3B, (S or R)-4-(1-(2-chloro-6-cyclopropylbenzoyl)-4-fluoro-1H-indazol-3-yl)cyclohex-3-enecarboxylic acid] |
| 6 | O=C(O)C1CC=C(c2nn(C(=O)c3c(Cl)cccc3C3CC3)c3cccc(F)c23)CC1 (single isomer, unassigned) [Example 3A, (R or S)-4-(1-(2-chloro-6-cyclopropylbenzoyl)-4-fluoro-1H-indazol-3-yl)cyclohex-3-enecarboxylic acid] |

Continued, compound first:

| SMILES | IC50 [nM] |
| --- | --- |
| O=C(c1c(Cl)cccc1C(F)(F)F)n1nc([C@H]2CC[C@@H](C(=O)O)CC2)c2c(F)cccc21 [Example 8B, (cis)-4-(1-(2-chloro-6-(trifluoromethyl)benzoyl)-4-fluoro-1H-indazol-3-yl)cyclohexanecarboxylic acid] | 505 |
| COC1CCN(C(=O)c2ccc3c(C4=CCC(C(=O)O)CC4)nn(C(=O)c4c(Cl)cccc4C(F)(F)F)c3c2)C1 (centres unmarked) [Example 4I, 4-(1-(2-chloro-6-(trifluoromethyl)benzoyl)-6-(3-methoxypyrrolidine-1-carbonyl)-1H-indazol-3-yl)cyclohex-3-enecarboxylic acid] | 3 |
| O=C(c1c(Cl)cccc1C(F)(F)F)n1nc([C@H]2CC[C@H](C(=O)O)CC2)c2c(F)cccc21 [Example 8A, (trans)-4-(1-(2-chloro-6-(trifluoromethyl)benzoyl)-4-fluoro-1H-indazol-3-yl)cyclohexanecarboxylic acid] | 16 |
